Patent US20240158639A1, “PROCESS FOR PREPARING INDOCYANINE GREEN” (ICROM Srl, priority 2021, published 2024)

Assay: Solubility in water, checked by filtration on a 0.45 μm syringe filter
Settings: composition with NaI content ≤2.5%

Substance: 1H-benz[e]indole, 2-[7-[1,3-dihydro-1,1-dimethyl-3-(4-sulfobutyl)-2H-benz[e]indol-2-ylidene]-1,3,5-heptatrienyl]-1,1-dimethyl-3-(4-sulfobutyl) hydroxide, inner salt, sodium salt [compound of formula (I)]
- soluble in water: up to 5 mg/ml
